Tests used:
JAK2/TYK2 [1] = target: T1, JAK2/TYK2 (Homo sapiens, UniProt O60674+P29597); format: protein-complex assay, Blood
[2] = target: Non-receptor tyrosine-protein kinase TYK2 (Homo sapiens, UniProt P29597)
JAK2/TYK2 [3] = target: T1, JAK2/TYK2; format: protein-complex assay, Blood; remark: listed apart in the source
JAK1/JAK2/TYK2 = JAK1/JAK2/TYK2 (Homo sapiens, UniProt O60674+P23458+P29597); format: protein-complex assay, Blood
JAK1/TYK2 = JAK1/TYK2 (Homo sapiens, UniProt P23458+P29597); format: protein-complex assay, Blood

Chains of the proteins cited; added tags and fusions are not shown. Lines headed by an entry give the natural chain unless they say otherwise; changes in a name come on top.
UniProt O60674: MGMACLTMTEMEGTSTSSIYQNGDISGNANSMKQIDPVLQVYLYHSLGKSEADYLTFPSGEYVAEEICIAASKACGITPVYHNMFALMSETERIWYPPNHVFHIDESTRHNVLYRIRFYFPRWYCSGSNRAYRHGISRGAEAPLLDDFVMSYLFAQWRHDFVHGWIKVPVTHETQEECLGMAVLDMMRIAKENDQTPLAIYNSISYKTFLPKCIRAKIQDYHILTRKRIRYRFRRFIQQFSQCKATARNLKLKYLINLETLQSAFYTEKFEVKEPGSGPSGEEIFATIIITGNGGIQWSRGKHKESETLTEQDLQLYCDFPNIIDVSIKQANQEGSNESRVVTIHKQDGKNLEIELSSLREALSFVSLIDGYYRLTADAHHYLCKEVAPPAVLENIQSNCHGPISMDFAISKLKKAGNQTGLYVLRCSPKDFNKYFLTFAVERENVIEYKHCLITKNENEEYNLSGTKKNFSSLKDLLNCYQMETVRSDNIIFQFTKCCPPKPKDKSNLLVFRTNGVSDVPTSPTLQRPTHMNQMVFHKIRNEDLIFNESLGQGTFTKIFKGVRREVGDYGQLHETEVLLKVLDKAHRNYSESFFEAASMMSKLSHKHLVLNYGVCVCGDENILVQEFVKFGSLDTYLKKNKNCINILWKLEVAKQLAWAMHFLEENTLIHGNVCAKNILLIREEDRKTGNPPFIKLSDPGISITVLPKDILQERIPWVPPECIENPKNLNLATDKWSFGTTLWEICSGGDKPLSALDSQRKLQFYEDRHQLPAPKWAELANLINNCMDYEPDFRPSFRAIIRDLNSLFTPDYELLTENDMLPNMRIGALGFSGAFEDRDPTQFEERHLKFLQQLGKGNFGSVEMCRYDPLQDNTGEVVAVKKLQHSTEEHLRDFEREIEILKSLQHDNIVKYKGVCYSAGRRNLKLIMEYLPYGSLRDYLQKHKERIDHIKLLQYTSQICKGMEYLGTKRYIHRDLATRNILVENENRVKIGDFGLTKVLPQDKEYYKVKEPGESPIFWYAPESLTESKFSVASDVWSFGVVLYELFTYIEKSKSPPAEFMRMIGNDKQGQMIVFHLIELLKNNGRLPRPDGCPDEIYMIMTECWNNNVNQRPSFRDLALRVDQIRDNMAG
UniProt P29597: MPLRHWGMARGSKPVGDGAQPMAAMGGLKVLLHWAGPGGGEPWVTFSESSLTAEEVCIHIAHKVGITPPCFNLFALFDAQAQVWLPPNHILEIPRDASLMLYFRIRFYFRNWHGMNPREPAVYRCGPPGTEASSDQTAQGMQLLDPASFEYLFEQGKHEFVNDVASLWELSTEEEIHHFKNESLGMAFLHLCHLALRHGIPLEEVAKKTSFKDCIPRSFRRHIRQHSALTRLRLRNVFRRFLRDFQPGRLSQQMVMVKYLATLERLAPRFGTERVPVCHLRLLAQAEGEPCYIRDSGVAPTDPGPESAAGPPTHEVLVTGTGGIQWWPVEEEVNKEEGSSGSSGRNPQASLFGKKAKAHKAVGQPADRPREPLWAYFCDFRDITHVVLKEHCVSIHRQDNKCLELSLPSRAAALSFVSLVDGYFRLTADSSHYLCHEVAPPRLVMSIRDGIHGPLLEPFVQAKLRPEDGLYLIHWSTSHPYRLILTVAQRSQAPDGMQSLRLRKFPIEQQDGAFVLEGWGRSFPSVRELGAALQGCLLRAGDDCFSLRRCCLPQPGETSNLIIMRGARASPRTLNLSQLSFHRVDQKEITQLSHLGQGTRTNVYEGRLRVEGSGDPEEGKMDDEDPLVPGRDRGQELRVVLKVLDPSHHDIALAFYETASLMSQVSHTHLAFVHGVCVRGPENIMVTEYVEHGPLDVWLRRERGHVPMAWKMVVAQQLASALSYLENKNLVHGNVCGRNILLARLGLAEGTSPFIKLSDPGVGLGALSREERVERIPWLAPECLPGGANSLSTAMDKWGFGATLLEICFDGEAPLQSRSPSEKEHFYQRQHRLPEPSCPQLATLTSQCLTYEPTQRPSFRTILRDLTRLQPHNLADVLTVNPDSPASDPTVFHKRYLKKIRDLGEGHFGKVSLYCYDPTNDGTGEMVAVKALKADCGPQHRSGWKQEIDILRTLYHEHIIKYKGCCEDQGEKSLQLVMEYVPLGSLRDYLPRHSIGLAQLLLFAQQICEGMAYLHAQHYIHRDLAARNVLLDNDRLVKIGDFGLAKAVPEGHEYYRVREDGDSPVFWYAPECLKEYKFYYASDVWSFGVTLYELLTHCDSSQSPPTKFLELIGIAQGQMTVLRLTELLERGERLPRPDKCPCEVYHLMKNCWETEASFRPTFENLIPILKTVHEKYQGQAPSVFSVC
UniProt P23458: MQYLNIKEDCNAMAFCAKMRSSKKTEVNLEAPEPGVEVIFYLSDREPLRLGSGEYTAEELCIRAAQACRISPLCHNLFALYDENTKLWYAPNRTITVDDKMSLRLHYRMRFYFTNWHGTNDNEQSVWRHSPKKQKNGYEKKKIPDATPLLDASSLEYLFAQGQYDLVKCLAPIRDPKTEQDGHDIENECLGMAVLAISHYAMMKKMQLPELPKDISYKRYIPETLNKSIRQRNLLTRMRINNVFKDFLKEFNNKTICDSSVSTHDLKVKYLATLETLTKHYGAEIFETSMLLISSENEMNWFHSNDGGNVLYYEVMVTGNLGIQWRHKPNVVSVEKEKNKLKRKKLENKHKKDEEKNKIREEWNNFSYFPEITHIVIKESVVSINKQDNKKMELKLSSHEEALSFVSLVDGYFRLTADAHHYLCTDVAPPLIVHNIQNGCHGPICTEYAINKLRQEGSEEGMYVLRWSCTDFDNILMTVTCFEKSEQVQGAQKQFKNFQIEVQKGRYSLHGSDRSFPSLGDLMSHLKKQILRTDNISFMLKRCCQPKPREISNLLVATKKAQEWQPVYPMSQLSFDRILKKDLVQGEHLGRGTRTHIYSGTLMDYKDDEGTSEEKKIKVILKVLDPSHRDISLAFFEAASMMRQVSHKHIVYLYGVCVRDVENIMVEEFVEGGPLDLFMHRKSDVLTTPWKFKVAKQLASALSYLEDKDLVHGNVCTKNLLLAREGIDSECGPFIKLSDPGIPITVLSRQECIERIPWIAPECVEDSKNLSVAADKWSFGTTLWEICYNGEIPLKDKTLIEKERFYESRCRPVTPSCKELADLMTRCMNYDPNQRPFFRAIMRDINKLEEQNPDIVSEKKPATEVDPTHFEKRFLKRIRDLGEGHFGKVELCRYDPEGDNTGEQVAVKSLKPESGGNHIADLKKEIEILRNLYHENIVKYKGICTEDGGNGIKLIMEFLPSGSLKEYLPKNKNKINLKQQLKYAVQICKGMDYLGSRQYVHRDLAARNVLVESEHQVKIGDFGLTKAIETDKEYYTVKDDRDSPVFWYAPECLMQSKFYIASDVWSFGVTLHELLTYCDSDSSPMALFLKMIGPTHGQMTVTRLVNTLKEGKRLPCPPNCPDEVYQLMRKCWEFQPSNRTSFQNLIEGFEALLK

**Q.** For `CC[C@@](C)(Nc1ccnc(-c2c[nH]c3ncccc23)n1)C(=O)NCC(F)(F)F` [DECERNOTINIB], which IC50 (JAK2/TYK2 [1]) is on record?
**A.** 11.2 µM

**Q.** What about the IC50 [2] of the same molecule?
**A.** > 10 µM

**Q.** And the IC50 (JAK2/TYK2 [3])?
**A.** 16.4 µM

**Q.** What about the IC50 (JAK1/JAK2/TYK2) of the same molecule?
**A.** 1870 nM

**Q.** And the IC50 (JAK1/TYK2)?
**A.** 1290 nM
